# Laboratory results as given in patent publication US7875284B2, “Methods of manufacturing and modifying taxane coatings for implantable medical devices” (Cook Incorporated, priority 2006, dated 2011).
Structure (SMILES),first order rate constant of elution (porcine serum (37° C.)),"half life of elution (pig, serum)"
"CC(=O)O[C@H]1C(=O)[C@@]2(C)[C@H]([C@H](OC(=O)c3ccccc3)[C@]3(O)C[C@H](OC(=O)[C@H](O)[C@@H](NC(=O)c4ccccc4)c4ccccc4)C(C)=C1C3(C)C)[C@]1(OC(C)=O)CO[C@@H]1C[C@@H]2O [amorphous paclitaxel, paclitaxel]",about 0.0244 min^−1,–
"CC(=O)O[C@H]1C(=O)[C@@]2(C)[C@H]([C@H](OC(=O)c3ccccc3)[C@]3(O)C[C@H](OC(=O)[C@H](O)[C@@H](NC(=O)c4ccccc4)c4ccccc4)C(C)=C1C3(C)C)[C@]1(OC(C)=O)CO[C@@H]1C[C@@H]2O [dihydrate paclitaxel, paclitaxel]",–,about 38.5 hours
